pIC50: −log10 of the molar value.
Molecular target: Recombinant human β-Secretase (BACE-1) (Homo sapiens, UniProt P56817)
Assay: BACE1 inhibition assay with fluorogenic substrate
Details: read-out: Experimental IC50; value of the racemic mixture, printed in Table 2 beside the enantiomer

Sequences of proteins named here, by UniProt entry; tags and fusion partners are left off. Residues count along the entry.
UniProt P56817, 46-457 limits assumed: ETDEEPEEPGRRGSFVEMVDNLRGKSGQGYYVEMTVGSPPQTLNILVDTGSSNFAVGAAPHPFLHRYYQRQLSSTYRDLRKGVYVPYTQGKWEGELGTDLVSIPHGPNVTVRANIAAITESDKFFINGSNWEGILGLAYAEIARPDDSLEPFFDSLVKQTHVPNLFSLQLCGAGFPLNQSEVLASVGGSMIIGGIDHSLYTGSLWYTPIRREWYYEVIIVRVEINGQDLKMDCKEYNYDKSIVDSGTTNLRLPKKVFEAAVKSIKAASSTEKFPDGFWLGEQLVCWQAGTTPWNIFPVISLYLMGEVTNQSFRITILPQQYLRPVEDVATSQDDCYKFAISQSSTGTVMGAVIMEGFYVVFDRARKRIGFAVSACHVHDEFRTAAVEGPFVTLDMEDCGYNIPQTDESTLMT

Row | SMILES | pIC50
1 | CCOC(=O)C1=C(C)NC(=N)N[C@@H]1c1ccc2ccccc2c1 | 6.70
2 | CCOC(=O)C1=C(C)NC(=N)N[C@@H]1c1ccccc1 | 6.30
3 | CCOC(=O)C1=C(C)NC(=N)N[C@H]1c1ccc2ccccc2c1 | 6.70

Source: article PMC7571164, “One Pot Synthesis of Micromolar BACE-1 Inhibitors Based on the Dihydropyrimidinone Scaffold and Their Thia and Imino Analogues” (Molecules, 2020)
